This passage reports Solubility results from patent publication US6656022B2, “Method for polishing a semiconductor substrate member” (Hitachi, Ltd., priority 2001, dated 2003).

This data set in a line: Solubility of abrasive-grain material at normal temperature. The class given is physicochemical.

The substance NH4Cl [Example 1] yielded a Solubility of 28.2%.
